The results in this text go back to patent US20250114653A1, “COMPOSITIONS, METHODS, AND ARTICLES COMPRISING COCAINE ESTERASE FOR DETOXIFYING AN ORGANOPHOSPHATE-BASED AGENT” (published 2025).

The experiment deals with cocaine esterase. The note with it: incubated with protein at 37° C., time points over 6 hours, LC/MS/MS peak area.

Regarding `COP(=O)(OC)OC=C(Cl)Cl`, the “substrate depletion by cocaine esterase” value is recorded as “depleted to a level indistinguishable from noise within the first hour”.
